Calls of active or inactive are those of the source. No cut-off for these calls is given here.
What was measured:
[1] = molecular target: T1, DNA topoisomerase 2-alpha (Homo sapiens, UniProt P11388); experiment: Inhibition of human topoisomerase 2alpha ATPase activity assessed as ATP hydrolysis in presence of [gamma32P]ATP and supercoiled pBR322 as substrate at 5 to 25 uM as substrate incubated for 8 mins by chromatography analysis; details: dose microM 5-25, time 8.0 min
[2] = molecular target: T1, DNA topoisomerase 2-alpha; experiment: Inhibition of human topoisomerase 2alpha ATPase activity assessed as ATP hydrolysis in presence of [gamma32P]ATP and absence of supercoiled pBR322 as substrate at 5 to 20 uM as substrate incubated for 8 mins by chromatography analysis; details: dose microM 5-25, time 8.0 min

Chains of the proteins cited; added tags and fusions are not shown. Lines headed by an entry give the natural chain unless they say otherwise; changes in a name come on top.
UniProt P11388: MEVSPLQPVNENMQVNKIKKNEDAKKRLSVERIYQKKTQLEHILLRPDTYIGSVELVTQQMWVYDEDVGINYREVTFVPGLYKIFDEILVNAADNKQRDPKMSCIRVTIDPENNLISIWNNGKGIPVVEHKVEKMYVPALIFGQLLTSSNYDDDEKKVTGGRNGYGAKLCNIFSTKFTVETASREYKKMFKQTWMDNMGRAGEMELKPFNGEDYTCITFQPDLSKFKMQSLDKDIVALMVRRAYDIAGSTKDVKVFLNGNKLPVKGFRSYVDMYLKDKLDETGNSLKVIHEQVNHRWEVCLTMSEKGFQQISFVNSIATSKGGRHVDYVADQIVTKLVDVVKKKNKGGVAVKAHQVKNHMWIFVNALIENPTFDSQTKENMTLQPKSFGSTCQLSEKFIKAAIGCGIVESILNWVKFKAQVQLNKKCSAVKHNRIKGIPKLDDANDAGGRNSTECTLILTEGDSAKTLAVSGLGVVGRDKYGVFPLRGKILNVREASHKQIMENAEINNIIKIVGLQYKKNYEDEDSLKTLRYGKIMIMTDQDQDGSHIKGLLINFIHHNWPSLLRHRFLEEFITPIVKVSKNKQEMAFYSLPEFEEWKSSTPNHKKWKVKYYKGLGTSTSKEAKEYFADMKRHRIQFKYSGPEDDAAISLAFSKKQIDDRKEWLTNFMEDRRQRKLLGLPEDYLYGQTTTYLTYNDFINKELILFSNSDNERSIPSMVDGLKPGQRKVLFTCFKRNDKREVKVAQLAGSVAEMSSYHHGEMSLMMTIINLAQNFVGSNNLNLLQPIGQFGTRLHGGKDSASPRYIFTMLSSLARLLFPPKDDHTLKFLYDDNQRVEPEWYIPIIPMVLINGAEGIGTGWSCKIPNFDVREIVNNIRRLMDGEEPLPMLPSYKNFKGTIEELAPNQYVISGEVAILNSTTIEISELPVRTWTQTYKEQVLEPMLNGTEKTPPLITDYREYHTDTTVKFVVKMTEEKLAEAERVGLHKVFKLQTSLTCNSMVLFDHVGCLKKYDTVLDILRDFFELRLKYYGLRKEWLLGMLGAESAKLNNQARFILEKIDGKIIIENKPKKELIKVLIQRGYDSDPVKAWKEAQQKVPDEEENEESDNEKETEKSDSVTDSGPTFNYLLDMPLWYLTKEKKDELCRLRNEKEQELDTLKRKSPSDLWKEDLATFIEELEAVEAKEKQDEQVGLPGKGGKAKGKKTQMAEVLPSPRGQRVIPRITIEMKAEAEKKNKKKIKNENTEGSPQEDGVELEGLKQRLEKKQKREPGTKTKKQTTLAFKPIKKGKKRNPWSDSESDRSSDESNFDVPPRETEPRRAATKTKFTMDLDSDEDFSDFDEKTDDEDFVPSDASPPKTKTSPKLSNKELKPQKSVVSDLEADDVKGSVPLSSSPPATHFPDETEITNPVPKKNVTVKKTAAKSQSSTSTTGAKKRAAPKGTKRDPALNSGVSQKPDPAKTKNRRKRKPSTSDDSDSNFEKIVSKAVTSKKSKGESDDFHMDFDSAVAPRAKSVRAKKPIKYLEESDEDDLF

CN(C)c1ccc(Nc2nc(-c3ccncc3)nc3c2CC(N)CC3)cc1 (configuration not stated)
inhibition [1]: Active
inhibition [2]: inactive

— ChEMBL document CHEMBL4699583 (J Med Chem, 2020)
